A value given as a limit tells only on which side of the number the result lay.

The experiment has as its target murine IL-21R extracellular domain His-Flag fusion protein (murine) (UniProt Q9JHX3). Description: competition ELISA; competitor plate-bound AbT. In general terms: In an ELISA, binding on a coated surface is turned into a signal by an enzyme label.

“murine IL-21 (from UniProt Q9ES17 18-146) (ligand)” gave a concentration above which binding of mIL-21R to AbT is blocked nearly completely of over 4 ng/mL.

The values above are taken from US20120276102A1.
